Experimental findings from paper PMC8588041, “Protective Role of Flavonoids against Intestinal Pro-Inflammatory Effects of Silver Nanoparticles” (Molecules, 2021) are described below.

The series has as its system Caco-2 cell line. As to the kind of experiment: MTT reduction assay, cytotoxicity in Caco-2 cells. Particulars: AgNO3 concentrations higher than 4.5 μg/mL, Caco-2, 24 h. The method, then:
Cells were grown in a 5% CO2 atmosphere at 37 °C. For each experiment, the cells were used when reaching 80% of confluence, which represented 3 to 5 days of differentiation. Then, the proliferating Caco-2 cells were treated 24 h after seeding.
The MTT reduction assay was used to determine the cytotoxicity of PEI coated-AgNP of two sizes (4 and 19 nm) in the Caco-2 cell line. […] After the exposure period, the culture medium was replaced with fresh medium containing 0.5 mg/mL MTT and the cells were further incubated for 2 h. The resulting dark purple crystals of formazan were then dissolved in DMSO and the absorbance of the corresponding solution, which was directly proportional to the number of living cells, was measured in an automatic plate reader set at a test wavelength of 570 nm and a reference wavelength of 620 nm.
For orientation: Tetrazolium dyes change colour on reduction, which living cells bring about.

Consider `O=[N+]([O-])[O-].[Ag+]` [AgNO3, Silver nitrate, reference compound], for which the Cytotoxic effect entry is given as “above 50%”.
